Values of other authors as cited in US8658664B2 (The Board of Regents of the University of Texas System, priority 2008, dated 2014).

System: UV-induced basal cell carcinoma cells
Conditions: oral, Ptch1+/- mice; cited from earlier work

## CC1=C2C[C@H]3[C@@H](CC=C4C[C@@H](O)CC[C@@]43C)[C@@H]2CC[C@]12O[C@@H]1C[C@H](C)CN[C@H]1[C@H]2C [Cyclopamine]
  block of growth of UV-induced basal cell carcinoma cells: 50%
